The numbers were not newly measured in patent US20160271149A1, “[…] COMPOUNDS THAT […] PROTEIN ARGININE […] ACTIVITY FOR REDUCING TUMOR CELL PROLIFERATION” (Epinova Therapeutics Corp., priority 2015, published 2016), which cites them from elsewhere.

The target in this series is T1, human PPARα (Homo sapiens, UniProt Q07869).
T1 sequence (Q07869 1-468): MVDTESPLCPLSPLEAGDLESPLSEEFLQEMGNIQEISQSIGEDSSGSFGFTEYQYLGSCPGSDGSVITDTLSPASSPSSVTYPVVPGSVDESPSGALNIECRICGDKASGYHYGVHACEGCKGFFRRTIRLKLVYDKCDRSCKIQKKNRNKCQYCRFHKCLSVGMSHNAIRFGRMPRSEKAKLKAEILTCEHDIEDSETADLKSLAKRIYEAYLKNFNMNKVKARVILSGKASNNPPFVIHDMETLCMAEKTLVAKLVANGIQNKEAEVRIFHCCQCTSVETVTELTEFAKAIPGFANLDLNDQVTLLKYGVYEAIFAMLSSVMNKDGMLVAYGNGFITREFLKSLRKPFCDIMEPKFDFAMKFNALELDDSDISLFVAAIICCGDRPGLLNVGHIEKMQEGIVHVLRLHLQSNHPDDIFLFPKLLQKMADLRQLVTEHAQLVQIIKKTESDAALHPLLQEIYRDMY
T1 sequence (P19793 1-462 partner): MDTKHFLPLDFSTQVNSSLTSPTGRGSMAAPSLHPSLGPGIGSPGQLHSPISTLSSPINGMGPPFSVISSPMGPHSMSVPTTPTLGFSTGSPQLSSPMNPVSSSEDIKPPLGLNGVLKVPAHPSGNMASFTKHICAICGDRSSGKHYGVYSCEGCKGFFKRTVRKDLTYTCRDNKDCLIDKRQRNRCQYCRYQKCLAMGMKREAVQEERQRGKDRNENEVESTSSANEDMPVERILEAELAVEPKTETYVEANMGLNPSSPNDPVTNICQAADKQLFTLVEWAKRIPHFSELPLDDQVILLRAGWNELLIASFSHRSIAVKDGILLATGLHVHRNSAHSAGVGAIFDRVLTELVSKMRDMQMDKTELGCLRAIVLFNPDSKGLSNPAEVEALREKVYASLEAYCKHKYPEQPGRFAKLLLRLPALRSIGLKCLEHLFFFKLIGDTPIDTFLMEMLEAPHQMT
To be noted: COS-1 cells, human PPARα and RXRα, cited from earlier work.

On to `CN(CCOc1ccc(CC2SC(=O)NC2=O)cc1)c1ccccn1` (centres unmarked) [Rosiglitazone, 5-[[4-[2-(methyl-2-pyridinylamino)ethoxy]phenyl]methyl]-2,4-thiazolidinedione], for which, where the note is “at 1 μM”, the “activation of PPARα” value is on record as “low level activation”. For the same compound, the “fold activation of PPARα” value (at a concentration of 10 μM) is 4.2 fold.
